Measurements as given in US10385005B2, “Compositions and methods for glucose transport inhibition” (OHIO UNIVERSITY, priority 2010, dated 2019).

Tested on: HeLa cells
Experiment: Glucose uptake assay (3H 2-DG), HeLa
Type: cell-based, human
Settings: 100 nM, RKO, and MCF-7 cancer cells, FIG. 7
Description: Cells were treated with α-PGG for 20 minutes before ^3H-labeled 2-DG. […] Samples: 1. Mock; 2. […] WZB-25 (30 μM); 5. WZB-26 (30 μM); and 6. WZB-27 (30 μM). Compounds 1a and 2a were initially prepared as potential anti-diabetic analogs of α-PGG (FIG. 1). Given the tight SAR of this class of compounds, it was hypothesized that a more rigid scaffold (i.e., a benzene ring) might enhance the activity. […] Error bars in FIG. 8 represent standard deviations of the measurements. Samples were done in triplicates and the experiment was repeated three times.

## Insulin
  effect on glucose uptake: had no effect on the glucose uptake
